This experiment deals with T1, hTRPC5 (Homo sapiens, UniProt Q9UL62).
T1 construct: expressed in transfected cells; host or cells: HEK-293
T1 sequence (Q9UL62 1-973): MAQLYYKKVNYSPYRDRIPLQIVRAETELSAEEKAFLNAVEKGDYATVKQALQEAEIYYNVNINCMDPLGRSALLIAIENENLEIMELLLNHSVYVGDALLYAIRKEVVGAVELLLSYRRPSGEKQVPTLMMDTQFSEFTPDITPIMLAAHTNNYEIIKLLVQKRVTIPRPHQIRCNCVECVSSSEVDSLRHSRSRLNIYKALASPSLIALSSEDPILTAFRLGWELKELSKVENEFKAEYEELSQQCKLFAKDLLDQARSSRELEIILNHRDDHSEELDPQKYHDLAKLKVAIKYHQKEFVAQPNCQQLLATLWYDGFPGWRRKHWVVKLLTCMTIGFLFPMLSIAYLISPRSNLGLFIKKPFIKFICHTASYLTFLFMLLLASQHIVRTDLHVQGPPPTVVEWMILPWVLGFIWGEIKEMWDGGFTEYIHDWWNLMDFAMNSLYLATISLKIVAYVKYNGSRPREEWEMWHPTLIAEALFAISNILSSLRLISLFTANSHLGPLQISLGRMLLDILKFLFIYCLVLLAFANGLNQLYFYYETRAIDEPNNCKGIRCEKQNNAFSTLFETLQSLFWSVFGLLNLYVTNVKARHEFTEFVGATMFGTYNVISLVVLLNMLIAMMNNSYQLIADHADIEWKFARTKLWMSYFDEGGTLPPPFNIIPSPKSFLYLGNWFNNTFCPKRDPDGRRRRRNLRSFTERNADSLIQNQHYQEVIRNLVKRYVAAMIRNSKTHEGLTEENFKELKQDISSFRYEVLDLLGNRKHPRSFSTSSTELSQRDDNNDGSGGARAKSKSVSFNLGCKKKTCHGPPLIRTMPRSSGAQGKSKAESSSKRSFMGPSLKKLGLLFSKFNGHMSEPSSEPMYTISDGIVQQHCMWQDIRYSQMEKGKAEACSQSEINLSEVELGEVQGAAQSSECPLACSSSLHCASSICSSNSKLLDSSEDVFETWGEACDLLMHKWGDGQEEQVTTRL
Put plainly: TRPC5 inhibitory activity assay (FLIPR calcium flux, Fluo-4, agonist Englerin A). Type of experiment: cell-based. Particulars: HEK-293 cells expressing hTRPC5; agonist Englerin A 0.3 nM. The procedure: HEK-293 cells expressing hTRPC4 or hTRPC5 were seeded into polylysine (PDL)-coated, black-bottomed, transparent 96-well plates at 2 × 10^4 cells per well. After 8 h of culture, the culture medium was discarded and 60 µL of 4 µM Fluo-4/AM dye was added. The plates were incubated at 37°C for 60 min and then rinsed five times with calcium flux assay buffer. […] After recording for 60 seconds, solvent control, test compound and positive inhibitor were added, and the signal was collected for another 300 seconds. Then, the agonist Englerin A (EA) (MedChemExpress, Shanghai, China, final concentration of 0.3 nM) was added, and the fluorescence signal was collected for another 600 seconds. The fluorescence signal in the trajectory diagram was expressed as F/F0, wherein F was the fluorescence signal at different time points and F0 was the basic fluorescence signal, that is, the average of the fluorescence signals at the first 10 time points. The dose-effect curve is first established with F/F0 = 1 as the baseline. The area under the curve of the fluorescence intensity change after the addition of EA was calculated. The IC50 value was calculated using the log[Inhibitor] vs. response - Variable slope, combining the area under the curve and the log value of the compound concentration.
Background: Calcium flux is commonly read through the fluorescence of an indicator in the cells.

SMILES strings stand for the structures.

This is an account of results in patent publication EP4703361A1, “PYRIDAZINONE TRPC4/5 INHIBITOR AND USE THEREOF” (Shanghai Institute of Materia Medica, Chinese Academy of …, priority 2023, dated 2024).

By IC50 is commonly meant the concentration needed to halve the response being measured. Take `COC(c1cc(F)ccc1Cl)c1c(Br)nc2n1CCN(c1cn[nH]c(=O)c1Cl)C2` (stereo not shown) [Example E44, 5-(2-bromo-3-((2-chloro-5-fluorophenyl)(methoxy)methyl)-5,6-dihydroimidazo[1,2-a]pyrazin-7(8H)-yl)-4-chloropyridazin-3(2H)-one]: the IC50 was found to be 46.1 nM.
